Key:
BCL-XL [1] = molecular target: T1, BCL-XL (Homo sapiens, UniProt Q07817); test: BCL-XL degradation assay, western blot in MOLT-4 cells, 16 h
Description: Compounds treatment: compounds were reconstituted in DMSO to make a stock concentration of 10 mM. MOLT-4 cells were maintained in RPMI-1640+10% FBS+1% Penicillin-Streptomycin. Cells were seeded into 6-well plates in 2 mL at the seeding density of 2e6 cells/mL. Compounds were added to the cells to a final concentration ranging 0.02-10 μM. After 16 hr incubation at 37° C., in a CO2 incubator, cells were collected in an Eppendorf tube and centrifuged at 200×g for 5 minutes, the supernatant removed and pellets washed with ice-cold PBS, centrifuged and supernatant removed again. Then. 50 μl of pre-chilled RIPA lysis buffer (Boston BioProducts. BP-115D) with protease and phosphatase inhibitors (Roche Applied Science. #04906837001 and #04693116001) was added into cell pellet to lyze the cells for 20 minutes under 4° C. Cell lysates were spin at 13000 rpm for 10 minutes. Supernatants were collected and protein concentration was measured by BCA assay kit (Solarbio. PC0020-500) following the manufacturer's protocol. Samples' final protein concentration was adjusted to 3.75 μg/uL with the RIPA lysis buffer based on BCA assay results and 4× loading buffer (Invitrogen. NP0007) was added into the samples and samples were heated to 85° C., for 10 min and then let cool at RT. […] The western blot images were obtained using Odyssey Imaging System and quantified using Image Studio Lite Ver 5.2 software. […]

Amino acid sequences for entries named in this document (tags omitted).
UniProt Q07817, whole entry: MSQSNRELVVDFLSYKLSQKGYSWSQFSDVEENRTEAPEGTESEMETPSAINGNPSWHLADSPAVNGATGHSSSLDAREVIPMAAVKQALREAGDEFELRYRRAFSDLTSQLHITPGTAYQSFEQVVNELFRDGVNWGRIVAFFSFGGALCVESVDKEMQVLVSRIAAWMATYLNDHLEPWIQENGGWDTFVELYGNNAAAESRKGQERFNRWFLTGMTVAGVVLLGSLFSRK

BCL-XL [2] = molecular target: T1, BCL-XL; test: Bcl-xL ELISA degradation in MOLT-4 cells, 6 h; settings: for DC50: read-out: Bcl-xL ELISA in MOLT-4 degradation 6 h: Mean external-Abs DC50
Description: The letter codes for BCL-XL DC50 include: A (<0.01 μM); B (0.01-0.1 μM); C (>[…]); D (>0.5-1.0 μM); and E (>1.0 μM). The letter codes for Dmax % include A (>75%); B (50 to 75%); C (<50%).

MOLT-4 cells = test: CTG (CellTiter-Glo) cell viability assay, MOLT-4; settings: read-out: CTG Cell Viability Assay - MOLT-4 3 day: Average external-IC50, 3 day incubation
Description: (§1) Compound-mediated viability effect on MOLT-4 and Caki-2 was quantitatively determined using the CellTiter-Glo® Luminescent Cell Viability Assay kit from Promega (Catalog number G7570) following manufacturer's recommended procedures. Briefly, MOLT-4 and Caki-2 cells were seeded into 384 well plates (Grenier Bio-One, Catalog number 781080) with a density of 10,000 cells per well. Compounds were then added to the assay plate with final top concentration of 10 μM and 1:3 dilution series with total of 9 doses. The final DMSO concentration is normalized to 0.2%. The assay plates were incubated at 37° C., for 3 days under 5% CO2. Then the assay plate was equilibrated at room temperature for 10 minutes. To determine cell viability, 30 uL CellTiter Glo reagent was added to each well and the assay plate was centrifuged at 1000 rpm for 30 second, incubated at room temperature for 10 min, and analyzed by detecting the luminescence using a multimode plate reader (EnVision 2105, PerkinElmer). The data was then analyzed by software Prism 7.0 from GraphPad and the dose response curves are fit using a three-parameter logistic equation to calculate IC50.
(§2) The letter codes for MOLT-4 IC50 include: A (<0.1 μM); B (0.1-1.0 μM); C (>1.0-3.0 μM); and D (>3.0 μM). The letter codes for Caki-2 IC50 include: A (<0.1 μM); B (0.1-1.0 μM); C (>1.0-10.0 μM); and D (>10.0 μM).

Caki-2 cells = test: CTG (CellTiter-Glo) cell viability assay, Caki-2; settings: read-out: CTG Chempartner - Caki-2 3 day: Average external-IC50, 3 day incubation
Description: as §1, §2

| Bcl-xL WB in MOLT-4 degradation 16 h: Average Dmax % (BCL-XL [1]) | DC50 (BCL-XL [1]; read-out: Bcl-xL WB in MOLT-4 degradation 16 h: Mean external-Abs DC50) [nM] | Bcl-xL ELISA in MOLT-4 degradation 6 h: Average Dmax % (BCL-XL [2]) | DC50 (BCL-XL [2]) [nM] | IC50 (MOLT-4 cells) [nM] | SMILES | IC50 (Caki-2 cells) [nM] |
| --- | --- | --- | --- | --- | --- | --- |
| C (C (<50%)) | > 1000 | – | – | – | Cc1ncsc1-c1ccc([C@H](C)NC(=O)[C@@H]2C[C@@H](O)CN2C(=O)[C@@H](NC(=O)CCCN(C)C(=O)CCCCCCCC#Cc2ccc(N3CCc4cccc(C(=O)Nc5nc6ccccc6s5)c4C3)nc2C(=O)O)C(C)(C)C)cc1 | – |
| – | – | A (A (>75%)) | < 10 | < 100 | COc1nn(C)c2ccc(C(C)NC(=O)[C@@H]3C[C@@H](O)CN3C(=O)[C@@H](NC(=O)CCCCCS(=O)(=O)NC(=O)c3nc(N(C)c4cc(C)c(Nc5nc6ccccc6s5)nn4)ccc3-c3cnn(CC45CC6CC(CC(C6)C4)C5)c3C)C(C)(C)C)cc12 (stereo partly shown) | > 10000 |
| – | – | A (A (>75%)) | 10 to 100 | < 100 | Cc1ncsc1-c1ccc([C@H](C)NC(=O)[C@@H]2C[C@@H](O)CN2C(=O)[C@@H](NC(=O)C2CCN(c3ccc(S(=O)(=O)NC(=O)c4nc(N5CCc6cccc(C(=O)Nc7nc8ccccc8s7)c6C5)ccc4-c4cnn(CC(C)(C)C)c4C)cc3)CC2)C(C)(C)C)cc1 | > 10000 |

Reference: US20250197387A1, “BCL-XL DEGRADERS AND USES THEREOF” (Kymera Therapeutics, Inc., priority 2021, published 2025)
